Measured values as given in PMC9751974 (Frontiers in Microbiology, 2022).
In brackets after ≈: the same amount, converted by molar mass.

System: E. coli ATCC25922
Settings: LB broth, 1 × 10^5 CFU/mL, 37°C, 16–24 h, triplicate
Procedure: The MIC values of peptides against E. coli ATCC25922 were determined by the microtiter broth dilution method. The bacteria were grown to the mid-logarithmic phase and diluted into the Luria-Bertani (LB) broth at 1 × 10^5 CFU/mL. […] Polymyxin and the sterile aqua distillate were tested as control. All assays were performed in triplicate.

Compound CC[C@@H](C)[C@@H](NC(=O)[C@@H](CCCNC(=N)N)NC(=O)[C@H](NC(=O)[C@@H](C)NC(=O)[C@H](NC(=O)[C@H](NC(=O)[C@@H](CC(C)C)NC(=O)[C@@H](CCCNC(=N)N)NC(=O)[C@H](N)C(C)C)[C@H](C)CC)C(C)C)C(C)C)C(=O)N[C@H](Cc1c[nH]c2ccccc12)C(=O)N[C@H](CCCNC(=N)N)C(=O)N[C@H](CCCNC(=N)N)C(N)=O [D1018] has an MIC of 8 µg/mL (≈ 5.21 µM).
